Drawing on PMC3176258, “A genomic biomarker signature can predict skin sensitizers using a cell-based in vitro alternative to animal tests” (BMC Genomics, 2011), this text covers Potency and Rv90 for 1 substance.

In one data set the test system is mice. As to conditions: sensitizing potency category according to LLNA; ref (14, 15, 45-48); cited from earlier work.
In another data set the test system is MUTZ-3 cells. The data set can be described thus: Cytotoxicity by propidium iodide, relative viability. As to conditions: concentration yielding 90% relative viability.

Regarding Isoeugenol, the Potency entry in the data set with mice was “Moderate [47]”. This substance displayed a Rv90 with MUTZ-3 cells of 300 µM.
